The values below are quoted from earlier work in patent US20030045478A1, “Gamma-ketoacid dipeptide derivatives as inhibitors of caspase-3” (priority 2000, published 2003).

For one data set, the target named is T1, caspase-1 (Homo sapiens, UniProt P29466).
T1 sequence (P29466 120-297 limits assumed): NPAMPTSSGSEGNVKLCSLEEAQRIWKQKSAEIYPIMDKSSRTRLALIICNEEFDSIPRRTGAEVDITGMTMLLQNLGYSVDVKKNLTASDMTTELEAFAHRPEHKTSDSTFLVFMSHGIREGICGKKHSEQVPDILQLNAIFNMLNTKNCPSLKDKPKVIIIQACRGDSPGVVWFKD
T1 sequence (P29466 317-404 limits assumed): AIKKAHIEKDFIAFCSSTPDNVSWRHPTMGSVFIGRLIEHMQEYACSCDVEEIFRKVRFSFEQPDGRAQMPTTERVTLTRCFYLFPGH

For the next data set, the target named is T2, caspase-3 (Homo sapiens, UniProt P42574).
T2 sequence (P42574 29-175 limits assumed): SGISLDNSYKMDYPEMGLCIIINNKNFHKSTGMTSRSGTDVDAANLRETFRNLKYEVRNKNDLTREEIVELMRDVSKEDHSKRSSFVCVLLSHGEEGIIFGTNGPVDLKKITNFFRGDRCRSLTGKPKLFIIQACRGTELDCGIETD
T2 sequence (P42574 176-277 limits assumed): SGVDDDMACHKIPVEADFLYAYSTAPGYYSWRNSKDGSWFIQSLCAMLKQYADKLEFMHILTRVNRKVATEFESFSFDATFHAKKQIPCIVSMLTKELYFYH

Regarding Ac-DEVD-CHO, the “inhibition of caspase-1 (in words)” value on caspase-1 is reported as “weaker but reasonable inhibitor”. Also, at caspase-3, the Ki (as a rule, a dissociation constant, usually derived from enzyme kinetics or from competition with a known ligand) was less than 1 nM.
